{"source": "patent US7250304B2", "about": "“Functional assay of high-density lipoprotein” (The Regents of the University of California, priority 2000, dated 2007)", "key": {"C57BL/6 mice": {"tested_on": "C57BL/6 mice", "test": "Injection into mice, LDL isolated and tested on human artery wall cocultures", "details": "100 μg per animal, tail vein; LDL 3 to 6 hours (apo A-I) or 6 hours (apo A-II) after injection"}, "[1]": {"tested_on": "human artery wall cell cocultures", "test": "LDL oxidation by human artery wall cell cocultures (lipid hydroperoxides)", "type": "cell-based", "details": "re-isolated, then cocultures 8 hrs", "method": "The wells of the microtiter plates were treated with 0.1% gelatin at 37° C. overnight. HASMC were added at a confluent density of 1×10^5 cells/cm^2. Cells were cultured for 2 d at which time they had covered the entire surface of the well and had produced a substantial amount of extracellular matrix. HAEC were subsequently added at 2×10^5 cells/cm^2 and were allowed to grow forming a complete monolayer of confluent HAEC in 2 d. In all experiments, HAEC and autologous HASMC (from the same donor) were used at passage levels of four to six.\nIn general, the cocultures were treated with native LDL (250 μg/ml) in the absence or presence of HDL for 8 h. The supernatants were collected and used for determination of lipid hydroperoxide levels. The cocultures were subsequently washed and fresh culture medium 199 (M199) without any additions was added and incubated for an additional 8 hrs. This allowed the collection of monocyte chemotactic activity released by the cells as a result of stimulation by the oxidized LDL. At the end of incubation, the supernatants were collected from cocultures, diluted 40-fold, and assayed for monocyte chemotactic activity. […] The number of migrated monocytes was determined microscopically and expressed as the mean±SD of 12 standardized high power fields counted in quadruple wells.\nStatistical significance was determined by model 1 ANOVA. […]"}}, "data": [{"substance": "apo A-II: Human apo A-II obtained from Sigma", "values": [{"measurement": "resistance of mouse LDL to oxidation by human artery wall cells after injection", "setting": "C57BL/6 mice", "value": "did not render the mouse LDL resistant to oxidation"}]}, {"substance": "DWL KAF YDK VAE KLK EAF PDW LKA FYD KVA EKL KEA F (DWLKAFYDKVAEKLKEAFPDWLKAFYDKVAEKLKEAF; Synthetic apo A-I peptide mimetic) [37 pA]", "values": [{"measurement": "oxidation by artery wall cells of LDL pre-incubated with the agent", "setting": "[1]", "value": "resistant to oxidation by the artery wall cells"}]}, {"substance": "apo A-I: Human apo A-I from Sigma, major apolipoprotein of HDL; infused into humans as apo A-I/phosphatidylcholine discs", "values": [{"measurement": "resistance of mouse LDL to oxidation by human artery wall cells after injection", "setting": "C57BL/6 mice", "value": "resistant to oxidation by human artery wall cells"}]}]}
